Measurements from patent publication US20060094649A1, “Hla-a1,-a2,-a3,-a24,-b7, and-b44 tumor associated antigen peptides and compositions” (priority 2002, published 2006).

System: HLA-B44 supertype molecules
Assay: HLA-B44 supertype cross-binding
Set-up: species or system human
Conditions: number of the six B44 supertype alleles bound

Structure (SMILES) | Degeneracy
CC(C)C[C@H](NC(=O)[C@H](CO)NC(=O)[C@H](CCCNC(=N)N)NC(=O)[C@H](CC(C)C)NC(=O)[C@H](CCC(N)=O)NC(=O)[C@H](CC(C)C)NC(=O)[C@H](CCC(=O)O)NC(=O)[C@@H](N)CCCNC(=N)N)C(=O)O [compound 475] | 4
CC[C@H](C)[C@H](NC(=O)[C@H](CCC(=O)O)NC(=O)[C@@H](N)[C@@H](C)O)C(=O)N[C@@H](CC(C)C)C(=O)N[C@@H](CCCCN)C(=O)NCC(=O)NCC(=O)N[C@H](C(=O)N[C@@H](CC(C)C)C(=O)O)C(C)C [compound 476] | 4
CC[C@H](C)[C@H](NC(=O)[C@H](CC(C)C)NC(=O)[C@@H](NC(=O)CNC(=O)CNC(=O)[C@H](CCCCN)NC(=O)[C@H](CC(C)C)NC(=O)[C@@H](NC(=O)[C@H](CCC(=O)O)NC(=O)[C@@H](N)[C@@H](C)O)[C@@H](C)CC)C(C)C)C(=O)O [compound 477] | 4
CC(C)C[C@H](NC(=O)[C@H](CO)NC(=O)[C@H](CCC(N)=O)NC(=O)[C@H](CS)NC(=O)[C@H](CC(=O)O)NC(=O)[C@H](CCC(=O)O)NC(=O)[C@H](CO)NC(=O)[C@H](CO)NC(=O)[C@H](CCC(=O)O)NC(=O)CN)C(=O)O [compound 478] | 4
CC(C)C[C@H](NC(=O)[C@H](CO)NC(=O)[C@H](CCC(N)=O)NC(=O)[C@H](CS)NC(=O)[C@H](CC(=O)O)NC(=O)[C@H](CCC(=O)O)NC(=O)[C@@H](N)CO)C(=O)N[C@H](C(=O)N[C@@H](CCCNC(=N)N)C(=O)N[C@H](C(=O)N[C@H](C(=O)O)C(C)C)[C@@H](C)O)[C@@H](C)O [compound 479] | 4
CC(C)[C@H](NC(=O)[C@H](CS)NC(=O)[C@H](CO)NC(=O)[C@H](C)NC(=O)CNC(=O)[C@H](Cc1ccccc1)NC(=O)[C@@H](NC(=O)[C@H](Cc1ccc(O)cc1)NC(=O)[C@H](CCCNC(=N)N)NC(=O)CNC(=O)[C@H](CCC(=O)O)NC(=O)[C@@H]1CCCN1)[C@@H](C)O)C(=O)O [compound 480] | 4
CC(C)[C@H](NC(=O)[C@H](C)NC(=O)[C@H](CCCNC(=N)N)NC(=O)[C@@H](NC(=O)[C@H](CCC(=O)O)NC(=O)[C@@H](N)CCCNC(=N)N)C(C)C)C(=O)N[C@H](C(=O)N[C@@H](CO)C(=O)N[C@@H](C)C(=O)O)[C@@H](C)O [compound 481] | 4
CC[C@H](C)[C@H](NC(=O)[C@H](CCC(=O)O)NC(=O)[C@@H](N)CCC(=O)O)C(=O)N[C@H](C(=O)NCC(=O)N[C@@H](Cc1ccc(O)cc1)C(=O)N[C@@H](CC(C)C)C(=O)N[C@@H](Cc1ccc(O)cc1)C(=O)O)[C@@H](C)O [compound 483] | 4
CC[C@H](C)[C@H](NC(=O)[C@H](Cc1ccc(O)cc1)NC(=O)[C@H](CC(C)C)NC(=O)[C@H](Cc1ccc(O)cc1)NC(=O)CNC(=O)[C@@H](NC(=O)[C@@H](NC(=O)[C@H](CCC(=O)O)NC(=O)[C@@H](N)CCC(=O)O)[C@@H](C)CC)[C@@H](C)O)C(=O)N[C@@H](CO)C(=O)N[C@@H](C)C(=O)N[C@@H](Cc1c[nH]c2ccccc12)C(=O)O [compound 485] | 4
CC(C)C[C@H](NC(=O)[C@@H](NC(=O)[C@H](CCCNC(=N)N)NC(=O)[C@H](CS)NC(=O)[C@H](CCC(=O)O)NC(=O)[C@H](CCC(=O)O)NC(=O)[C@@H](NC(=O)[C@H](CS)NC(=O)[C@H](CCC(=O)O)NC(=O)[C@@H](N)CCC(N)=O)C(C)C)C(C)C)C(=O)O [compound 486] | 4
CC(C)C[C@H](NC(=O)CNC(=O)[C@H](CCC(N)=O)NC(=O)[C@H](CC(C)C)NC(=O)[C@@H](NC(=O)[C@H](CCCNC(=N)N)NC(=O)[C@H](CS)NC(=O)[C@H](CCC(=O)O)NC(=O)[C@H](CCC(=O)O)NC(=O)[C@@H](N)C(C)C)C(C)C)C(=O)O [compound 487] | 4
CC[C@H](C)[C@H](NC(=O)[C@H](CCC(=O)O)NC(=O)[C@@H](N)CCCCN)C(=O)N[C@@H](CC(C)C)C(=O)N[C@@H](CC(=O)O)C(=O)N[C@@H](CCC(=O)O)C(=O)N[C@@H](C)C(=O)N[C@@H](Cc1ccc(O)cc1)C(=O)N[C@H](C(=O)O)C(C)C [compound 489] | 4
CC[C@H](C)[C@H](NC(=O)[C@H](CCC(=O)O)NC(=O)[C@@H](N)CCCCN)C(=O)N[C@@H](CC(C)C)C(=O)N[C@@H](CC(=O)O)C(=O)N[C@@H](CCC(=O)O)C(=O)N[C@@H](C)C(=O)N[C@@H](Cc1ccc(O)cc1)C(=O)N[C@H](C(=O)N[C@@H](CCSC)C(=O)N[C@@H](C)C(=O)O)C(C)C [compound 490] | 4
CSCC[C@H](NC(=O)[C@@H](NC(=O)[C@H](Cc1ccc(O)cc1)NC(=O)[C@H](C)NC(=O)[C@H](CCC(=O)O)NC(=O)[C@@H](N)CC(=O)O)C(C)C)C(=O)N[C@@H](C)C(=O)NCC(=O)N[C@H](C(=O)NCC(=O)O)C(C)C [compound 491] | 4
CC[C@H](C)[C@H](NC(=O)[C@@H]1CCCN1C(=O)[C@@H](NC(=O)[C@H](CCCCN)NC(=O)CNC(=O)CNC(=O)[C@H](CC(=O)O)NC(=O)[C@H](C)NC(=O)[C@H](Cc1c[nH]cn1)NC(=O)[C@H](Cc1ccc(O)cc1)NC(=O)[C@H](CCC(=O)O)NC(=O)[C@@H](N)[C@@H](C)O)C(C)C)C(=O)O [compound 492] | 4
CC[C@H](C)[C@H](NC(=O)[C@@H](NC(=O)[C@H](CS)NC(=O)[C@@H](NC(=O)[C@@H]1CCCN1C(=O)[C@@H]1CCCN1C(=O)[C@H](CCC(N)=O)NC(=O)[C@@H]1CCCN1C(=O)[C@H](CC(C)C)NC(=O)[C@H](CCCNC(=N)N)NC(=O)[C@H](CCC(=O)O)NC(=O)CN)[C@@H](C)CC)[C@@H](C)O)C(=O)O [compound 493] | 4
CC(C)C[C@H](NC(=O)[C@H](Cc1ccc(O)cc1)NC(=O)[C@H](CCC(=O)O)NC(=O)[C@@H](N)CCC(=O)O)C(=O)N[C@H](C(=O)N1CCC[C@H]1C(=O)N[C@@H](CCC(N)=O)C(=O)N[C@@H](CCC(N)=O)C(=O)NCC(=O)O)C(C)C [compound 495] | 4
CC(C)C[C@H](NC(=O)[C@H](Cc1ccc(O)cc1)NC(=O)[C@H](CCC(=O)O)NC(=O)[C@@H](N)CCC(=O)O)C(=O)N[C@H](C(=O)N1CCC[C@H]1C(=O)N[C@@H](CCC(N)=O)C(=O)N[C@@H](CCC(N)=O)C(=O)NCC(=O)N[C@@H](Cc1ccccc1)C(=O)O)C(C)C [compound 496] | 4
CC(C)C[C@H](NC(=O)[C@@H]1CCCN1C(=O)[C@H](CO)NC(=O)[C@H](CCCNC(=N)N)NC(=O)[C@@H]1CCCN1C(=O)[C@H](C)NC(=O)[C@H](CCC(=O)O)NC(=O)[C@H](CCC(=O)O)NC(=O)[C@@H](N)CCC(=O)O)C(=O)O [compound 498] | 4

The remaining lines, values ahead:

Degeneracy | Structure (SMILES)
4 | CC(C)C[C@H](NC(=O)[C@@H]1CCCN1C(=O)[C@H](CO)NC(=O)[C@H](CCCNC(=N)N)NC(=O)[C@@H]1CCCN1C(=O)[C@H](C)NC(=O)[C@H](CCC(=O)O)NC(=O)[C@@H](N)CCC(=O)O)C(=O)N[C@@H](C)C(=O)O [compound 499]
4 | CC(C)C[C@H](NC(=O)[C@@H]1CCCN1C(=O)CNC(=O)[C@H](CCC(=O)O)NC(=O)[C@@H](N)CCCNC(=N)N)C(=O)N1CCC[C@H]1C(=O)N[C@@H](C)C(=O)N[C@@H](C)C(=O)N[C@@H](CCCNC(=N)N)C(=O)N1CCC[C@H]1C(=O)N[C@@H](C)C(=O)O [compound 500]
3 | CC[C@H](C)[C@H](NC(=O)[C@H](CCC(=O)O)NC(=O)[C@@H](NC(=O)[C@H](CC(C)C)NC(=O)[C@H](CO)NC(=O)[C@H](CCCNC(=N)N)NC(=O)[C@H](CC(C)C)NC(=O)[C@H](CCC(N)=O)NC(=O)[C@H](CC(C)C)NC(=O)[C@H](CCC(=O)O)NC(=O)[C@@H](N)CCCNC(=N)N)[C@@H](C)O)C(=O)N[C@@H](CC(C)C)C(=O)O [compound 501]
3 | CC(C)C[C@H](NC(=O)[C@H](CO)NC(=O)[C@H](CCC(N)=O)NC(=O)[C@H](CS)NC(=O)[C@H](CC(=O)O)NC(=O)[C@H](CCC(=O)O)NC(=O)[C@H](CO)NC(=O)[C@H](CO)NC(=O)[C@H](CCC(=O)O)NC(=O)CN)C(=O)N[C@H](C(=O)O)[C@@H](C)O [compound 502]
3 | CC(C)C[C@H](NC(=O)[C@H](C)NC(=O)[C@@H]1CCCN1C(=O)[C@H](CS)NC(=O)[C@H](Cc1c[nH]cn1)NC(=O)[C@H](CC(C)C)NC(=O)[C@H](CCC(=O)O)NC(=O)[C@@H](N)CS)C(=O)O [compound 503]
3 | CC(C)C[C@H](NC(=O)[C@H](C)NC(=O)[C@@H]1CCCN1C(=O)[C@H](CS)NC(=O)[C@H](Cc1c[nH]cn1)NC(=O)[C@H](CC(C)C)NC(=O)[C@H](CCC(=O)O)NC(=O)[C@@H](N)CS)C(=O)N[C@H](C(=O)O)C(C)C [compound 504]
3 | CC(C)C[C@H](NC(=O)[C@H](C)NC(=O)[C@@H]1CCCN1C(=O)[C@H](CS)NC(=O)[C@H](Cc1c[nH]cn1)NC(=O)[C@H](CC(C)C)NC(=O)[C@H](CCC(=O)O)NC(=O)[C@@H](N)CS)C(=O)N[C@H](C(=O)N[C@H](C(=O)O)[C@@H](C)O)C(C)C [compound 505]
3 | CC(C)C[C@H](NC(=O)[C@H](C)NC(=O)[C@@H]1CCCN1C(=O)[C@H](CS)NC(=O)[C@H](Cc1c[nH]cn1)NC(=O)[C@H](CC(C)C)NC(=O)[C@H](CCC(=O)O)NC(=O)[C@@H](N)CS)C(=O)N[C@H](C(=O)N[C@H](C(=O)N[C@@H](Cc1ccc(O)cc1)C(=O)O)[C@@H](C)O)C(C)C [compound 506]
3 | CSCC[C@H](NC(=O)[C@H](CO)NC(=O)[C@H](CCC(=O)O)NC(=O)[C@@H](N)Cc1ccccc1)C(=O)N1CCC[C@H]1C(=O)N[C@@H](CC(N)=O)C(=O)N1CCC[C@H]1C(=O)N[C@@H](CCC(=O)O)C(=O)NCC(=O)O [compound 507]
3 | CSCC[C@H](NC(=O)[C@H](CO)NC(=O)[C@H](CCC(=O)O)NC(=O)[C@@H](N)Cc1ccccc1)C(=O)N1CCC[C@H]1C(=O)N[C@@H](CC(N)=O)C(=O)N1CCC[C@H]1C(=O)N[C@@H](CCC(=O)O)C(=O)NCC(=O)N[C@@H](CCCNC(=N)N)C(=O)N[C@@H](Cc1ccc(O)cc1)C(=O)O [compound 508]
3 | CC[C@H](C)[C@H](NC(=O)[C@H](CCCCN)NC(=O)[C@H](CCCCN)NC(=O)[C@H](CS)NC(=O)CNC(=O)[C@H](C)NC(=O)[C@H](Cc1ccccc1)NC(=O)[C@H](CCC(=O)O)NC(=O)[C@@H](N)CCC(N)=O)C(=O)O [compound 509]
